We go through one compound from patent publication US20250282736A1 (published 2025).

The chains behind the UniProt entries cited, without tags or fusion partners. Where a name states a change or a piece, a line headed by the entry shows the natural chain unless it says otherwise.
UniProt O75469: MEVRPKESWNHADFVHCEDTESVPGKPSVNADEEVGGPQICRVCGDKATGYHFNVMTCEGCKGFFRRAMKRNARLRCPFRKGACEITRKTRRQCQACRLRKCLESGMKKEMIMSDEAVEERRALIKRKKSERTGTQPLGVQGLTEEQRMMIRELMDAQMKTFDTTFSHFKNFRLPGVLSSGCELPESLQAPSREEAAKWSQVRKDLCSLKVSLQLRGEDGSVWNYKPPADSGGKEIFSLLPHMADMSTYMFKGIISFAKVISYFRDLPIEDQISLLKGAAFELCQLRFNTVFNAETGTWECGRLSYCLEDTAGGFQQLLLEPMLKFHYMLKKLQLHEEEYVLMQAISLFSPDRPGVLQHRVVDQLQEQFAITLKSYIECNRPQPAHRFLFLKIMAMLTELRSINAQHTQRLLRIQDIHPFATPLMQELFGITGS

This test has as its target hPXR (Homo sapiens (Human), UniProt O75469). The test can be described thus: hPXR binding assay. Conditions: read-out: Binding (% inhibition at 10 μM).

Molecules are shown by their SMILES.

The term inhibition denotes the percentage by which the read-out fell short of the control.

In the case of `CCCCOc1ccc(C(C)(C)C)cc1NC(=O)c1nnn(-c2cccc(OC)c2)c1C` [H7], the inhibition at 10 µM was 14%.
